From patent US20030069187A1, “Elastase inhibitors” (priority 2001, published 2003)

Sequences of proteins named here, by UniProt entry; tags and fusion partners are left off. Residues count along the entry.
UniProt P00772, 27-266: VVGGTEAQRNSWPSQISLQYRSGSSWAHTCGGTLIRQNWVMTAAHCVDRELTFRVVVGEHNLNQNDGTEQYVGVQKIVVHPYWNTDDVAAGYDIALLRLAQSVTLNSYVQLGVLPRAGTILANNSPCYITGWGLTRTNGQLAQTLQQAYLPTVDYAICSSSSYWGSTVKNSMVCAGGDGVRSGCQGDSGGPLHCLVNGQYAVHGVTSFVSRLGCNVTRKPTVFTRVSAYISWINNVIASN

Tests used:
Assay type in all cases: biochemical
[1] = biological target: T1, porcine pancreatic elastase (PPE) (Sus scrofa, UniProt P00772); experiment: Elastase inhibitory capacity assay with succinylated elastin substrate; conditions: 0.029 U PPE, 200 μg succinylated elastin, 37° C. 30 min, % inhibition standardized to μg protein, p<0.001
T1 construct: purchased Calbiochem, San Diego, Calif
Protocol: FIG. 1 is a bar graph depicting results from experiments in which the inhibitory capacity of each EDP isolate was evaluated in triplicate using 200 μg of succinylated elastin (Rao et al., 1997; Mathrubutham et al., 1998), 30 μg of Total EDP, […] of G-25 fractions and RP-HPLC fractions and 0.029 U PPE in 150 μl with 50 mM sodium borate pH8.5. Reactions were incubated at 37° C. for 30 minutes, then treated with 2,4,6-trinitrobenzene sufonic acid. Absorbance at A450nm was determined after 20 min at room temperature. Elastase inhibitory capacity was evaluated by comparing the activity of PPE in the presence and absence of EDP, where elastase in the absence of EDP was considered to represent 100% elastase activity. […]
Total EDP was fractionated on a G-25 Sephadex column equilibrated with 50 mM sodium borate pH 8.5 at a flow rate of 0.7 ml/minute. G-25 inhibitory fractions were then analyzed by reverse phase high performance liquid chromatography (RP-HPLC) using a C-18 column (Vydac, Hesperia, Calif.) with 5% acetonitrile, 0.1% triflouroacetic acid pH 2.3 as RP buffer at a flow rate of 0.5 ml/minutes and monitored at A205nm. […] The inhibitory capacity of G-25 and RP-HPLC EDP fractions were evaluated (Rao et al., 1997; Mathrabutham et al., 1998) using 3 μg of G-25 fraction and RP-HPLC peptide with 0.029 U PPE. […] The inhibitor constant (Ki) was experimentally calculated (Lineweaver et al., 1936). […]

[2] = biological target: T2, human neutrophil elastase (HNE) (Homo sapiens, UniProt P08246); experiment: Kinetic analysis (Lineweaver-Burk) of inhibitor constant with elastin substrate, HNE
T2 construct: purchased Calbiochem San Diego, Calif
T2 sequence (P08246 30-267): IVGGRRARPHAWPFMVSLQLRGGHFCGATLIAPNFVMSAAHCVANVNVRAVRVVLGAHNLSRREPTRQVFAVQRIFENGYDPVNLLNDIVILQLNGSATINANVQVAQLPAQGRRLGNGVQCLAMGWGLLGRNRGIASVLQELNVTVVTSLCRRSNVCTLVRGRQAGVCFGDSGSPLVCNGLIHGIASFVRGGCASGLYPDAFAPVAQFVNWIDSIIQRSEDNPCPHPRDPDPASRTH
Protocol: (§1) Total EDP was fractionated on a G-25 Sephadex column equilibrated with 50 mM sodium borate pH 8.5 at a flow rate of 0.7 ml/minute. G-25 inhibitory fractions were then analyzed by reverse phase high performance liquid chromatography (RP-HPLC) using a C-18 column (Vydac, Hesperia, Calif.) with 5% acetonitrile, 0.1% triflouroacetic acid pH 2.3 as RP buffer at a flow rate of 0.5 ml/minutes and monitored at A205nm. Fractions were collected, dried, and resuspended in 50 μl water and assayed for elastase inhibitory capacity (Rao et al., 1997; Mathrabutham et al., 1998). The inhibitory capacity of G-25 and RP-HPLC EDP fractions were evaluated (Rao et al., 1997; Mathrabutham et al., 1998) using 3 μg of G-25 fraction and RP-HPLC peptide with 0.029 U PPE. Percentage inhibitory capacity was evaluated by comparing the activity of PPE in the presence and absence (100% activity) of EDP and standardized to μg protein. The inhibitor constant (Ki) was experimentally calculated (Lineweaver et al., 1936). The assay was carried out in triplicate as previously described (Rao et al., 1997) using 11.16-134 μM elastin substrate, 3.34-9.94 μM AFP peptide, 0.029 U of porcine pancreatic elastase (PPE) and 0.010 U human neutrophil elastase (HNE; 21 U/mg; Calbiochem San Diego, Calif.) and incubated at 37° C. for 1,3 and 5 min. Ki is a measure of inhibiting effect and lower Ki indicates greater inhibition.

[3] = biological target: T1, porcine pancreatic elastase (PPE); experiment: Kinetic analysis (Lineweaver-Burk) of inhibitor constant with elastin substrate, PPE
Protocol: as §1

C[C@H](N)C(=O)N[C@@H](Cc1ccccc1)C(=O)N1CCC[C@H]1C(=O)O [AFP, Ala-Phe-Pro]
increase in elastase inhibitory capacity compared to total EDP [1]: 4.4 fold
increase in elastase inhibitory capacity compared to total EDP ([1]; listed as Synthetic AFP): 7.6 fold
pKi ([2]; HNE 0.010 U, 11.16-134 μM elastin substrate, 3.34-9.94 μM AFP, 37° C.): 7.64
mode of inhibition of HNE ([2]; kinetic analysis): competitive inhibitor
pKi ([3]; PPE 0.029 U, 11.16-134 μM elastin substrate, 3.34-9.94 μM AFP, 37° C.): 7.42
mode of inhibition of PPE ([3]; kinetic analysis): competitive inhibitor

pKi: −log10 of the molar value.
